Assay results as given in PMC6719321 (Clinical Pharmacokinetics, 2019).

Assay: Trial 1
Conditions: warfarin 25 mg single dose alone, N = 50; median (minimum, maximum)

## CC(=O)C[C@@H](c1ccccc1)c1c(O)c2ccccc2oc1=O [S-warfarin]
  tmax: 1.0 h
